The list shows a part of the results, in another mix than the full data. Records with an inconclusive call do not appear. Active and inactive are the calls of the source. Calls follow the shape of the dose curve; as a rule, active = well fitted curve in the direction sought with a large enough effect in the polarisation (not every such curve was filed as active); inconclusive = small, poorly fitted or top-dose-only effect, or effect the other way, or a change in a side signal; inactive = no such curve, though single readings can be large or run the other way; the % refers to the polarisation.
test: qHTS Assay for Inhibitors Targeting the Menin-MLL Interaction in MLL Related Leukemias: Competition With Fluorescein Labeled MLL-derived Peptide; conditions: Fluorescence polarization, fluorescein-MLL peptide displacement from menin; at 61.4 µM (top of the series); also: % of control where 0% means no effect

SMILES	FP activity change
CN(C(=O)Cc1ccc(Cl)c(Cl)c1)[C@H]1CCCC[C@@H]1N1CCCC1	inactive: 4.82%

— PubChem BioAssay AID1766 (National Center for Advancing Translational Sciences (NCATS), 2009)
